Source: patent US20230181729A1 (published 2023)

Target: T1, PRAME (PRAME-004) peptide on HLA-A*02:01 (human)
T1 peptide: SLLQHLIGL
Assay: cytokine release

B1: R17P1G3 (TCR, V domains shown)
Valpha: QKEVEQNSGPLSVPEGAIASLNCTYSDRGSQSFFWYRQYSGKSPELIMSIYSNGDKEDGRFTAQLNKASQYVSLLIRDSQPSDSATYLCAVGPSGTYKYIFGTGTRLKVLA
Vbeta: EAQVTQNPRYLITVTGKKLTVTCSQNMNHEYMSWYRQDPGLGLRQIYYSMNVEVTDKGDVPEGYKVSRKEKRNFPLILESPSPNQTSLYFCASSPGGSGNEQFFGPGTRLTVL
binding result: recognises
